Reference: patent US20220047701A1, “COMBINATION OF HER2/NEU ANTIBODY WITH HEME FOR TREATING CANCER” (INSERM (Institut National de la Santé et de la Recherche …, priority 2018, published 2022)
pKd: −log10 of the molar value.

Biological target: Biotinylated HER-2 mimotope peptide
Experiment: SPR (Biacore), biotinylated mimotope on streptavidin chip, antibody injected

Row | Substance | pKd
1 | Trastuzumab (native) (antibody) | 8.42
2 | heme-exposed Trastuzumab (antibody) | 8.18
